Measurements reported in patent US20250213547A1, “METHODS OF TREATING NEUROLOGICAL DISEASES” (priority 2022, published 2025).

Experiments:
[1] = Multiple rising dose study: PK of soticlestat and M-I (day 1, day 14), oral solution; conditions: both, human, in vivo
Text: The second trial was a phase I, randomized, double-blind, placebo-controlled study, with soticlestat administered by oral solution at multiple escalating doses in healthy subjects. The criteria for subject inclusion and exclusion are similar to those of the first trial described above but with the added screening of female subjects for pregnancy. Five cohorts with eight subjects each, including two placebos, were randomized to receive soticlestat by oral solution for 14 days. After a cohort finished their dosage regimen, a decision was made whether to escalate the dosage for the next cohort. Cohorts 1, 2, and 3 received 100, 300, and 400 mg once daily (QD), respectively, and cohorts 4 and 5 received 300 mg twice daily (BID) or 600 mg QD. The regimen for cohorts 4 and 5 were discontinued after subjects began experiencing adverse neurological and psychiatric events. Example 6 describes the PK protocol and the results.
The blood sampling protocol included obtaining a 4-ml blood sample for PK analysis 30 minutes pre-dose, and at 10, 15, 20, and 30 minutes and 1, 1.5, 2, 3, 4, 6, 8, 10, 12, 16, and 24 hours post-dose on days 1 and 14. Cohort 3, receiving 400 mg QD, had additional blood samples taken on day 7 at 15 and 30 minutes, and 1, 2, 4, and 8 hours post-dose. […] The median time for Cmax (Tmax) across the dose range varied between 0.33-0.5 hours. […] The 24 hour plasma area under the concentration-time curve (AUC24) for doses 100, 300, and 400 mg at day 14 were 458, 2690, and 2800 ng×h/mL, respectively. The concentration time profiles were similar from day 1 through day 14. […]
Blood samples were obtained for soticlestat and M-I PK data on days 1 and 14 at −30 minutes pre-dose and at 10, 15, 20, and 30 minutes, and post-dose at 1, 1.5, 2, 3, 4, 6, 8, 10, 12, 16, and 24 hours. […] Plasma and urine soticlestat and M-I concentrations were measured and validated as described in example 2. […] An analysis of variance (ANOVA) assessed the variation in time dependency for Cmax and AUC∞ on day 1 and day 14 for cohorts receiving once daily dosing. […]

[2] = Multiple rising dose study: safety (TEAEs) in healthy subjects over 14 days; format: in vivo, human; conditions: healthy men and women, up to 400 mg daily
Protocol: Soticlestat safety metrics were obtained from the patients described in example 6. The rising dose study tested the safety and tolerability of soticlestat dosages in healthy subjects over 14 days. Subjects were monitored during the study and a full review was conducted after each rising dose. Safety data monitoring included vitals, physical and visual examinations, electrocardiogram, BMI, and clinical laboratory tests. There was no clinically relevant findings. Percentages are rounded to one decimal place. A subject with two or more different adverse events (AE) within the same levels of the MedDRA term and treatment is counted only once at that level using the most related or severe incident. A TEAE is defined as an AE or SAE that occurs or gets worse after receiving the first dose of study drug and within 30 days after the last dose of study drug.

[3] = human, in vivo
Text: Other inclusion criteria were body weight ≥10 kg, currently taking a fixed dosage of 1 to 4 antiseizure medications, and failure to remain seizure free after trying at least two antiseizure medications. Convulsive seizures include focal to bilateral tonic-clonic with impaired awareness, hemi-clonic, simultaneous bilateral clonic, and generalized tonic-clonic seizures. Drop seizures can involve the entire body, trunk, or head which leads to falling. […] Approximately 126 patients ages ≥2 and ≤17 years were enrolled in the study. The study included two main phases, a 4-6 week screening and baseline period, and a 20-week treatment period. Patients received doses twice a day in a tablet formulation. The starting dose was adjusted according to the patient's body weight (Table 17).
During the first 8 weeks of treatment patient dosing was a titrated for individual optimization. The remaining 12-weeks of treatment consisted of a maintenance phase. The study began with treating patients ≥9 years of age for one month before treating younger patients. Blood was collected for PK analysis on the first dosage day within one hour of the morning dose, and 30 minutes, and 1, 2, 3, and 4 hours post-dose. Subsequent blood sampling took place before the morning dose and 30 minutes post-dose. Blood samples were obtained at scheduled times for determining PK profile and Tmax, which is the time Cmax was reached. A patient's seizure frequency was recorded before and during the trial to calculate percent change from baseline.
The PK model parameters can be used as a tool to estimate PK and drug exposure in an individual or a population (such as with ELEKTRA), as well as to calculate individualized dosing based on covariates. For example, optimal daily dosing can be calculated using the area under the concentration time curve and clearance values (dose=targetAUC24×CL). Blood sampling at steady-state was limited in the ELEKTRA study, thus some of the PK parameters shown in Table 32 for the ELEKTRA population were simulated by interpolation.
The dots represent the simulation and the numbers below the dot represent the simulated covariate value, while the values above the dots show the percent change from the reference level. The vertical line labeled “ref” depicts the reference level. […] The CV % refers to the coefficient of variation assuming a log-normal distribution, derived as […], where σ denotes the standard deviation of the log-transformed values.
The term AUC(0-tau) stands for AUC to the end of the dosing period. The covariate effects were analyzed using exposure parameters AUC, Cmax, and Ctrough.

[4] = Healthy Japanese subjects, Part 1 (single dose 200, 600, 1200 mg tablets): PK of TAK-935 and M-I; format: in vivo, human; conditions: plasma, mean (% CV)
Protocol: (§1) This study consisted of 2 parts, and was a randomized, double-blind, placebo-controlled study to assess safety, tolerability, and PK and PD of TAK-935 when administered orally in healthy Japanese subjects.
On Day 1 of each dose level, a single dose of TAK-935 or placebo was administered, and safety, PK and PD were evaluated.
After the screening visit, eligible participants checked—in on Day-2. On Day 1, eligible participants were randomized 6:2 to TAK-935 or placebo in each dose group in double-blinded fashion. No stratification variables were used for randomization. On the same day, study drug was administered by oral administration of single dosing of TAK-935 to each cohort at each dose level. The subjects were discharged on Day 3. Intensive PK samplings were performed from Day 1 to Day 3.
Subjects received a single dose of TAK-935 or placebo of 200 mg, 600 mg, or 1200 mg with 150 mL of water, after fasting for at least 10 hours and remained fasted until 4 hours after dosing.
(§2) Blood samples for PK analysis of TAK-935 and its metabolites (M-I) were collected into blood collection tubes (vacutainer) containing the anticoagulant K2EDTA (Table 40e and Table 40f).
(§3) The PK parameters of TAK-935 and its metabolites (M-I) were determined from the concentration-time profiles for all evaluable subjects. Actual sampling times, rather than scheduled sampling times, were used in all computations involving sampling times. The following PK parameters were calculated from plasma concentrations of TAK-935 and its metabolites (M-I), unless otherwise specified: […]

[5] = Healthy Japanese subjects, Part 2 (100, 200, 300 mg BID up-titration): PK of TAK-935 and M-I; format: in vivo, human; conditions: for AUCτ/D (dose-normalized AUC during a dosing interval) / Cmax/D (dose-normalized): plasma, mean (% CV)
Protocol: as §1
TAK-935 or placebo was administered to the 9 subjects at the dose of 100 mg BID from Day 1 to Day 7, then 200 mg BID from Day 8 to Day 14, and finally 300 mg BID from Day 15 to Day 21, and safety, PK and PD were investigated. The planned dose levels of TAK-935 to be evaluated are outlined in Table 40a.
After the screening visit, eligible participants checked—in on Day-2. On Day 1, eligible participants were randomized 6:3 to TAK-935 or placebo in double-blinded fashion. No stratification variables were used for randomization. Study drug was administered every day by oral administration of multiple dosing with up-titration of TAK-935 to 9 subjects firstly at 100 mg BID from Day 1 to Day 7, then at 200 mg BID from Day 8 to Day 14, and finally at 300 mg BID from Day 15 to Day 21, successively. The subjects were discharged on Day 24. Intensive PK samplings were performed on Day 1, Day 7, Day 14 and Day 21.
Subjects received multiple oral doses of TAK-935 or placebo escalating from 100 mg BID, 200 mg BID, and then to 300 mg BID with 150 mL of water for 7 days per each dose level. For the morning dose, subjects were kept fasted for at least 8 hours before administration and up to 2 hours after administration. The evening dose was administered at any time between 8 hours and 12 hours after the morning dose, but prior to the evening meal except for Days 1, 7, 14, and 21. On Days 1, 7, 14, and 21, the evening dose was administered 12 hours after the morning dose and prior to the evening meal. • Identity of Study Drugs • Study drug refers to TAK-935 100 mg tablet and matching placebo. • Compound: Code name: TAK-935 • Dosage forms: TAK-935 100 mg tablets and matching placebo tablets were used in this study. The TAK-935 tablets and placebo tablets were yellow-red film-coated tablets for oral administration.
as §2, §3

[6] = Day 7, TAK-935 100 mg BID, mean
[7] = TAK-935, multiple doses 100 mg BID

O=C(c1cccnc1-c1ccncc1)N1CCC(O)(Cc2ccccc2)CC1 [soticlestat]
fold increase in AUC24 over 4-fold dose range [1]: 6.12 fold | fold increase in Cmax over 4-fold dose range [1]: 6.08 fold | fold increase in Cmax over 6-fold dose range [1]: 6.55-9.35 fold | safety/tolerability conclusion [2]: safe and tolerated | CL/F [3]: 13.03 to 691.15 L/h | Q/F [3]: 8.17 to 347.85 L/h | V2/F [3]: 11.94 to 633.51 L | V3/F [3]: 24.13 to 1235.17 L | AUClast/D (dose-normalized) ([4]; TAK-935 200 mg single dose): 3.476 (89.9) h*ng/mL/mg | AUC∞/D (dose-normalized) ([4]; TAK-935 200 mg single dose): 3.605 (88.3) h*ng/mL/mg | Cmax/D (dose-normalized) ([4]; TAK-935 200 mg single dose): 4.250 (139.3) ng/mL/mg | AUClast/D (dose-normalized) ([4]; TAK-935 600 mg single dose): 6.432 (49.6) h*ng/mL/mg | AUC∞/D (dose-normalized) ([4]; TAK-935 600 mg single dose): 6.537 (48.6) h*ng/mL/mg | Cmax/D (dose-normalized) ([4]; TAK-935 600 mg single dose): 5.473 (49.5) ng/mL/mg | AUClast/D (dose-normalized) ([4]; TAK-935 1200 mg single dose): 9.480 (44.2) h*ng/mL/mg | AUC∞/D (dose-normalized) ([4]; TAK-935 1200 mg single dose): 9.550 (44.1) h*ng/mL/mg | Cmax/D (dose-normalized) ([4]; TAK-935 1200 mg single dose): 8.465 (47.9) ng/mL/mg | Rac(AUC) (accumulation ratio based on AUC) [5, 6]: 1.054 | Rac(Cmax) (accumulation ratio based on Cmax) [5, 6]: 1.047 | AUCτ/D (dose-normalized AUC during a dosing interval) ([5]; Day 7, TAK-935 100 mg BID): 2.244 (48.8) h*ng/mL/mg | Cmax/D (dose-normalized) ([5]; Day 7, TAK-935 100 mg BID): 2.037 (86.7) ng/mL/mg | AUCτ/D (dose-normalized AUC during a dosing interval) ([5]; Day 14, TAK-935 200 mg BID): 4.302 (44.9) h*ng/mL/mg | Cmax/D (dose-normalized) ([5]; Day 14, TAK-935 200 mg BID): 4.903 (54.7) ng/mL/mg | AUCτ/D (dose-normalized AUC during a dosing interval) ([5]; Day 21, TAK-935 300 mg BID): 6.730 (25.2) h*ng/mL/mg | Cmax/D (dose-normalized) ([5]; Day 21, TAK-935 300 mg BID): 6.883 (39.9) ng/mL/mg | accumulation ratio for AUC [5, 7]: 1.054 | accumulation ratio for Cmax [5, 7]: 1.047
